Data: article PMC9905088

Amino acid sequences for entries named in this document (tags omitted). Residues count along the entry.
UniProt P63045, 1-92 Q36C, chain 1 of 3: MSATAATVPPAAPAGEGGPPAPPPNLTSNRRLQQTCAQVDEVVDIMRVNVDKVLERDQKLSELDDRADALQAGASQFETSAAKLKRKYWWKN
UniProt P63041, 1-83: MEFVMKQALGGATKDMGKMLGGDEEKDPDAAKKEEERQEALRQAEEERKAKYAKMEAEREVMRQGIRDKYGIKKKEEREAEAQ
UniProt P63041, 26-83: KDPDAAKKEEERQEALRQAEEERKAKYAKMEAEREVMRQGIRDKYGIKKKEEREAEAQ
UniProt P63041, 48-73: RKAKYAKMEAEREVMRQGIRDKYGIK

What was measured:
[1] = target: -6 layer cross-linked synaptic SNARE complex: VAMP2 (1-92, C2A, Q36C), syntaxin 1 (172-265, C173A, L209C), SNAP25 (1-206) (UniProt P63045)
[2] = target: -6 layer cross-linked synaptic SNARE complex: VAMP2 (1-92, C2A, Q36C), syntaxin 1 (172-265, C173A, L209C), SNAP25 (1-206) (UniProt P63045); remark: listed apart in the source
[3] = target: -6 layer cross-linked synaptic SNARE complex: VAMP2 (1-92, C2A, Q36C), syntaxin 1 (172-265, C173A, L209C), SNAP25 (1-206) (UniProt P63045); experiment: single-molecule dual-trap optical tweezers; single SNARE complex tethered by a DNA handle between anti-digoxigenin and streptavidin beads, held at constant trap separation or pulled and relaxed; 8 μM CpxI or fragment supplied through a protein channel; 22 °C, 25 mM HEPES, 50 mM NaCl, 0.02% CA630, pH 7.4, oxygen scavenging system
[4] = target: -6 layer cross-linked synaptic SNARE complex: VAMP2 (1-92, C2A, Q36C), syntaxin 1 (172-265, C173A, L209C), SNAP25 (1-206) (UniProt P63045); remark: listed apart in the source

Substance | share of single SNARE complexes limited to N-terminal transition after 8 μM 1-83 aa (optical tweezers) [1] [%] | signal rate of the C-terminal stabilized state of single SNARE complexes after 8 μM 1-83 aa (optical tweezers) [1] [%] | signal rate of the C-terminal blocked state of single SNARE complexes after 8 μM 26-83 aa (optical tweezers) [2] [%] | signal rate of the C-terminal stabilized state of single SNARE complexes after 8 μM 26-83 aa (optical tweezers) [2] [%] | percent of SNARE complexes that changed state after the addition [3] [%] | share of single SNARE complexes with slightly blocked C-terminal transition after 8 μM CH domain 48-73 aa (optical tweezers) [4] [%]
CpxI fragment 1-83 aa (from UniProt P63041 1-83) (domain or fragment) | 6 | 94 |  |  |  | 
CpxI fragment 26-83 aa (AH-CH domain) (from UniProt P63041 26-83) (domain or fragment) |  |  | 31.5 | 66 | 57.5 | 
CpxI CH domain peptide (48-73 aa) (from UniProt P63041 48-73) |  |  |  |  | 81 | 96
